Key:
D(2) dopamine receptor = D(2) dopamine receptor (Rattus norvegicus, UniProt P61169); test: Binding affinity to dopamine receptor D2
[1] = molecular target: Serotonin 3 (5-HT3) receptor (Rattus norvegicus, UniProt P35563+Q9JJ16); test: The ability to inhibit [3H]GR-65630 binding to 5-hydroxytryptamine 3 receptor in rat brain cortices; format: tissue-based
Procedure, shortened: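 Membranes from male rat brain cortices incubated with [3H]GR65630 (0.2 nM) as radioligand. Nonspecific binding defined with 1 μM ICS-205930.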

Sequences of proteins named here, by UniProt entry; tags and fusion partners are left off. A change or cut given only in a name is not applied to a line headed by its entry.
UniProt P61169, whole entry: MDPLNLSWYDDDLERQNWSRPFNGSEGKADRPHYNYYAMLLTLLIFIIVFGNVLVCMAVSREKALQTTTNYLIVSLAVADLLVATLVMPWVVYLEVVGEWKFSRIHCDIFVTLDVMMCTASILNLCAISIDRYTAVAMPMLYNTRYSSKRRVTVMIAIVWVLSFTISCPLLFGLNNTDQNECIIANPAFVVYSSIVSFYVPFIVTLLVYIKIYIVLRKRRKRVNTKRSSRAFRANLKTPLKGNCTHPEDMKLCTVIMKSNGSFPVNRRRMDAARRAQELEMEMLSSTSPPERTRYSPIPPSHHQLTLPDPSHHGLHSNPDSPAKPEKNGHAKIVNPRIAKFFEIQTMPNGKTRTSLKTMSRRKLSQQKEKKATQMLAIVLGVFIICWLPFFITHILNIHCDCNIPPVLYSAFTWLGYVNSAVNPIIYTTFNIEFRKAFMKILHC
UniProt P35563, whole entry: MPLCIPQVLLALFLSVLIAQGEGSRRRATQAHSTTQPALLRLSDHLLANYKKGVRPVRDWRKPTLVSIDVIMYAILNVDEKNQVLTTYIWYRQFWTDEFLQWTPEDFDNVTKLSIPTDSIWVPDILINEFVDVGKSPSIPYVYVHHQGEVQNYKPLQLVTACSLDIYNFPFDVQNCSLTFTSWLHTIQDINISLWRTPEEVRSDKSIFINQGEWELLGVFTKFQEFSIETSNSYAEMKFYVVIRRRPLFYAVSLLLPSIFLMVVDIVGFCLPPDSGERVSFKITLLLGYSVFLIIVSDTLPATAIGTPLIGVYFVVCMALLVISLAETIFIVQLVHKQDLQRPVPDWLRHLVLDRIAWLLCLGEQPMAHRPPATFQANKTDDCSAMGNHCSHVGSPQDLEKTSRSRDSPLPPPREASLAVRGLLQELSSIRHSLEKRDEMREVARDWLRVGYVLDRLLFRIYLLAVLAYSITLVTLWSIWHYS
UniProt Q9JJ16: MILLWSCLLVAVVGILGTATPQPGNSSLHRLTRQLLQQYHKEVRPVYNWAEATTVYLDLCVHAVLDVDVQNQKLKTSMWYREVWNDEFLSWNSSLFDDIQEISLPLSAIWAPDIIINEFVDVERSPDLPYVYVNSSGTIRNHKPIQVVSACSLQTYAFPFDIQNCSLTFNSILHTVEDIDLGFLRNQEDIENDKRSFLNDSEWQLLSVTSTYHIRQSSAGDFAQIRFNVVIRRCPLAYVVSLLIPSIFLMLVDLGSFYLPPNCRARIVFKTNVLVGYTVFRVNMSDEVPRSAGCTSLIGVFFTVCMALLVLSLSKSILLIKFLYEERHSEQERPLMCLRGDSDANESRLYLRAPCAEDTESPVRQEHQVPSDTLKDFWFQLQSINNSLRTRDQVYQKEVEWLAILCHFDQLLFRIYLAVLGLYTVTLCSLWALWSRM

Ki (D(2) dopamine receptor) [nM] | SMILES | Ki [1] [nM]
113 | CCN(CC)CCNC(=O)c1cc(Cl)c(N)cc1OC [METOCLOPRAMIDE] | 
 | NCCc1c[nH]c2ccc(O)cc12 [SEROTONIN] | 390
